# This is a selection: effects in other tests are not listed, and their absence says nothing.
# Test system: HaCaT and HEKn cells expressing RIP3
# Test: SNP treatment of HaCaT and HEKn cells, MTT assay and western blotting
# Protocol: In order to identify the association between SNP and RIP3 observed in TEN, HaCaT and HEKn cells expressing RIP3 were treated with 0 to 5 mM SNP for 24 hours, and cell viability and phosphorylation of relevant factors were analyzed by MTT assay and western blotting.
substance,measurement,setting,value
sodium nitroprusside,"cell death (cell viability, MTT assay)",0 to 5 mM SNP for 24 hours,induced dose-dependent necrotic cell death
same,phosphorylation of MAPK (western blotting),SNP treatment over time,phosphorylation of MAPK over the treatment time

# From patent US10624891B2, “Method of diagnosing and treating skin necroptosis disease comprising RIP3-MLKL pathway blocker” (Ajou University Industry-Academic Cooperation Foundation, priority 2015, dated 2020)
